Data reported in paper PMC6825215, “An anionic, endosome-escaping polymer to potentiate intracellular delivery of cationic peptides, biomacromolecules, and nanoparticles” (Nature Communications, 2019).

Tested on: human coronary artery vascular smooth muscle cells (HCAVSMCs)
Assay: Flow cytometric uptake and retention of fluorescently labeled peptide
Details: 5 µM Alexa-488 labeled peptide, mass ratios 3:1 to 1:20 peptide:polymer, 30 min, flow cytometry
Method: All samples were run in triplicate.
Cells were then treated with each formulation for 30 min.
Cell culture medium containing the polymer treatment was then aspirated, and cells were subsequently treated with fluorescent peptide or vivo-morpholino alone for 30 min.
HCAVSMCs were seeded and treated for 30 min as noted above.

## CC[C@H](C)[C@H](NC(=O)[C@H](CCCCN)NC(=O)CNC(=O)[C@H](CC(C)C)NC(=O)[C@H](CC(C)C)NC(=O)[C@H](Cc1ccc(O)cc1)NC(=O)CNC(=O)[C@H](C)NC(=O)[C@H](CO)NC(=O)[C@H](CC(N)=O)NC(=O)[C@H](CC(C)C)NC(=O)[C@@H](NC(=O)[C@H](Cc1c[nH]c2ccccc12)NC(=O)CN)[C@@H](C)O)C(=O)N[C@@H](CC(N)=O)C(=O)N[C@@H](CC(C)C)C(=O)N[C@@H](CCCCN)C(=O)N[C@@H](C)C(=O)N[C@@H](CC(C)C)C(=O)N[C@@H](C)C(=O)N[C@@H](C)C(=O)N[C@@H](CC(C)C)C(=O)N[C@@H](C)C(=O)N[C@@H](CCCCN)C(=O)N[C@@H](CCCCN)C(=O)N[C@H](C(=O)N[C@@H](CC(C)C)C(=O)N[C@@H](CCCCN)C(=O)N[C@@H](C)C(=O)N[C@@H](CC(C)C)C(=O)N[C@@H](C)C(=O)N[C@@H](CCCNC(=N)N)C(=O)N[C@@H](CCC(N)=O)C(=O)N[C@@H](CC(C)C)C(=O)NCC(=O)N[C@H](C(=O)N[C@@H](C)C(=O)N[C@@H](C)C(=O)O)C(C)C)[C@@H](C)CC [Transportan-MK2i]
  effect of co-delivery with PPAA (pre-complexed NPs) on peptide uptake: did not display significant PPAA-mediated enhancement of uptake with co-delivery
